{
  "source": "patent US20240043404A1",
  "about": "(AbbVie Inc., priority 2009, published 2024)",
  "test_system": "RS4;11 cells",
  "assay": "RS4;11 cell viability assay (CellTiter Glo);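 note: acute lymphoblastic leukemia line RS4,11, EC50 derived from percentage of viable cells after treatment relative to untreated controls, cell killing taken as a measure of Bcl-2 inhibition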",
  "format": "cell-based",
  "conditions": "50,000 cells per well, 10% human serum, 48 hours",
  "data": [
    {"molecule": "CC1(C)CCC(CN2CCN(c3ccc(C(=O)NS(=O)(=O)c4ccc(OCC5C[C@@H]6C[C@H]5[C@@H](O)[C@H]6O)c([N+](=O)[O-])c4)c(Oc4cnc5[nH]ccc5c4)c3)CC2)=C(c2ccc(Cl)cc2)C1", "note": "(stereo partly drawn) [Example 204, 4-(4-{[2-(4-chlorophenyl)-4,4-dimethylcyclohex-1-en-1-yl]methyl}piperazin-1-yl)-N-[(4-{[(1R,4R,5S,6R)-5,6-dihydroxybicyclo[2.2.1]hept-2-yl]methoxy}-3-nitrophenyl)sulfonyl]-2-(1H-pyrrolo[2,3-b]pyridin-5-yloxy)benzamide]", "values": [
      {"measurement": "EC50", "result": 0.165, "unit": "µM"}
    ]},
    {"molecule": "CC1(C)CCC(CN2CCN(c3ccc(C(=O)NS(=O)(=O)c4ccc(OCC5C[C@@H]6C[C@H]5[C@H](O)[C@@H]6O)c([N+](=O)[O-])c4)c(Oc4cnc5[nH]ccc5c4)c3)CC2)=C(c2ccc(Cl)cc2)C1", "note": "(stereo partly drawn) [Example 203, 4-(4-{[2-(4-chlorophenyl)-4,4-dimethylcyclohex-1-en-1-yl]methyl}piperazin-1-yl)-N-[(4-{[(1R,4R,5R,6S)-5,6-dihydroxybicyclo[2.2.1]hept-2-yl]methoxy}-3-nitrophenyl)sulfonyl]-2-(1H-pyrrolo[2,3-b]pyridin-5-yloxy)benzamide]", "values": [
      {"measurement": "EC50", "result": 0.0221, "unit": "µM"}
    ]}
  ]
}
